From US20230303497A1, “BENZYLAMINE OR BENZYL ALCOHOL DERIVATIVE AND USES THEREOF” (CHENGDU HYPERWAY PHARMACEUTICALS CO., LTD, priority 2020, published 2023)

Amino acid sequences for entries named in this document (tags omitted). A change or cut given only in a name is not applied to a line headed by its entry.
UniProt Q12809: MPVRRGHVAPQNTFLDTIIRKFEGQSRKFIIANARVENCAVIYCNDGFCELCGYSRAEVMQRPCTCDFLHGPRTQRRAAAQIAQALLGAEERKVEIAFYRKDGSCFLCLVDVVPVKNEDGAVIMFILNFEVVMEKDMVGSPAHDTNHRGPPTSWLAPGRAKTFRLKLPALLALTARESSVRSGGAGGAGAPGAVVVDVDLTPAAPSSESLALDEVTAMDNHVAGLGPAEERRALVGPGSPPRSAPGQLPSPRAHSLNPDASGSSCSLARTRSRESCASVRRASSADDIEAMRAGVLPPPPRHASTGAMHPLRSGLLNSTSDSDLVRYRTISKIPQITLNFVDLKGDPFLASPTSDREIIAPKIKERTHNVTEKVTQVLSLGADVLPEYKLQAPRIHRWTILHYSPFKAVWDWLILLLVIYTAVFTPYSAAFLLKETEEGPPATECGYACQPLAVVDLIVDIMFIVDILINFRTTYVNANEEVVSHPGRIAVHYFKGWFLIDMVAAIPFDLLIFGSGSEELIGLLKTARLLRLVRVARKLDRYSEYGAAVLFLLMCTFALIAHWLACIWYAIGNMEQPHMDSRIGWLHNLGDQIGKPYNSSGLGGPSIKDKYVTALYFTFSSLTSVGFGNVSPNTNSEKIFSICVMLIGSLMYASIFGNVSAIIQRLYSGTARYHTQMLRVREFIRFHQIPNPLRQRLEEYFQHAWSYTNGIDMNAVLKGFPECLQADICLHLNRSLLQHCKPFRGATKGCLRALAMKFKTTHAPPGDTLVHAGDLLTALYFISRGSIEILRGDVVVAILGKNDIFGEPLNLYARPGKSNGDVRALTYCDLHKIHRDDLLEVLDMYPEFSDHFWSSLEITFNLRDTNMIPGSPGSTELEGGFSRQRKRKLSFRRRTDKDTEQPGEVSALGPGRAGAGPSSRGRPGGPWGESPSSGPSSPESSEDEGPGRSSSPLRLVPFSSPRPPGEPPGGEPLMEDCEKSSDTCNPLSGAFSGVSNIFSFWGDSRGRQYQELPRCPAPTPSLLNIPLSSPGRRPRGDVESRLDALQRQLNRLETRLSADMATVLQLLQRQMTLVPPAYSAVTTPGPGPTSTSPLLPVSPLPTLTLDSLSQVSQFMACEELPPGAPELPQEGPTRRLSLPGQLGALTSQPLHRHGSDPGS

Biological target: hERG ion channels (Homo sapiens (Human), UniProt Q12809)
Test: Inhibition activity test on hERG ion channels in HEK293 cells (cardiac safety, patch clamp)
Conditions: 100 nM, positive control
Protocol: This experiment is used as a cardiac safety test of compound.
The reagents are purchased from Sigma (St. Louis, MO) except NaOH and KOH for acid-base titration. Final concentrations of tested solutions are prepared on the testing day and dissolved in extracellular fluid. […] All the test solutions and the control solutions contain 0.3% DMSO. Intracellular fluid (mM) contains: K Aspartate, 130; MgCl2, 5; EGTA 5; HEPES, 10; Tris-ATP 4; pH 7.2 (KOH titration).
Cells: all experiments is performed at room temperature. Each cell itself is taken as the corresponding control.
Compounds are all perfused using a perfusion system that utilizes the gravity. At least two cells are tested per concentration. After current stabilization (or 5 minutes), the change in current magnitude before and after the use of the compound is compared to calculate the blocking effect of the compound. […]
Electrophysiology: Transfer the Cells to the perfusion tank and perfuse with extracellular fluid. […] The intracellular fluid is stored in small quantities in portions in a −80° C. refrigerator, and melt on the day of the experiment. […]
This process is repeated every 20 seconds. […] The maximum tail current triggered by the second square wave is detected, and when the current is stabilized, the test compound is perfused. The strength of the block is calculated when the response is stabilized.

**Q.** How did the hERG blocking rate turn out when `COc1cc(N)c(Cl)cc1C(=O)NC1CCN(CCCOc2ccc(F)cc2)CC1OC` (stereo not shown) [Cisapride, reference compound] was run?
**A.** about 90%
